According to patent publication US20220002435A1 (IMMUNOME, published 2022):

Columns and labels:
[1] = biological target: T1, human EPN1 expressed by human cell lines (human, UniProt Q9Y6I3 1-576); assay: flow cytometry, H660 cells (human tumor line)
T1 construct: Endogenous EPN1 of human tumour and normal cell lines, stained on live cells or on fixed and permeabilised cells, or immunoprecipitated; The cell lines were not engineered to express it; also called surface EPN1; huEPN1
T1 sequence: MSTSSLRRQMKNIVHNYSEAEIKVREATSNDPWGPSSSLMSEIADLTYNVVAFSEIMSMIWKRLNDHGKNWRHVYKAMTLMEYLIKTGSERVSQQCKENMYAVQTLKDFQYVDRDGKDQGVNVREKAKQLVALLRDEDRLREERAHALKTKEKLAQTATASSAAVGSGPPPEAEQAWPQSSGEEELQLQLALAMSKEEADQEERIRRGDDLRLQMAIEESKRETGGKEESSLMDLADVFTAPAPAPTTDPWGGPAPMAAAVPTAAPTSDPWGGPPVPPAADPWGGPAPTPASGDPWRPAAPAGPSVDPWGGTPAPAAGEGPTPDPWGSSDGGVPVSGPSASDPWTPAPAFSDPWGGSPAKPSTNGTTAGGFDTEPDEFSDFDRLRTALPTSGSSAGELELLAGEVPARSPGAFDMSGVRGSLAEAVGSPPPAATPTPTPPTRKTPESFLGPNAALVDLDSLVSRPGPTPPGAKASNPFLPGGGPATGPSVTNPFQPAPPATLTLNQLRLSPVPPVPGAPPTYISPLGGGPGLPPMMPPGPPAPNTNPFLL

[2] = biological target: T1, human EPN1 expressed by human cell lines; assay: flow cytometry, HeLa cells (human tumor line)
[3] = biological target: T2, recombinant EPN1 (Origene, cat #TP307099) (human, UniProt Q9Y6I3 1-576); assay: SPR, IMM20059 captured at 2800 RU on CM5/Protein A, EPN1 in solution, 25° C.
T2 construct: Bought protein; also called Epsin-1; Epsin 1
T2 sequence: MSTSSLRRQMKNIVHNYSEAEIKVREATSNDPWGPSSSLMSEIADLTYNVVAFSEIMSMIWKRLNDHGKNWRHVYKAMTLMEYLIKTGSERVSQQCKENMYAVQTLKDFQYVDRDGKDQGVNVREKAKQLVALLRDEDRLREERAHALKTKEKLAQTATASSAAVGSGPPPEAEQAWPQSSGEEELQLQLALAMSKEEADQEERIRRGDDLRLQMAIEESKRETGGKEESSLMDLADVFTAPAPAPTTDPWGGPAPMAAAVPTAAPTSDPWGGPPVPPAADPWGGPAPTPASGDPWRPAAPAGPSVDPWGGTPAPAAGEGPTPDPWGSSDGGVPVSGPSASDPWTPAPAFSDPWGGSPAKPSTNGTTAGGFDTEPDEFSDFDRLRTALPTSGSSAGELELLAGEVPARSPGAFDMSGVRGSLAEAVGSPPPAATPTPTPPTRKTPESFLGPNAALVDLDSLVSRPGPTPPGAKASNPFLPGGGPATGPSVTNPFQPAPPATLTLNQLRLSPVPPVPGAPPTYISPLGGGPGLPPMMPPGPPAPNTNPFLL
Procedure: IMM20059 was captured at four different surface densities (500, 1000, 2600, and 2800 RU) on a CM5/Protein A sensor chip using 10 mM HEPES, pH 7.4, 150 mM NaCl, 0.005% Tween-20, 0.2 mg/mL BSA as a running buffer. EPN1 (Origene Cat #TP307099) or EPN2 (Origene Cat #TP310899) were diluted in running buffer to both 200 nM and 20 nM and analyzed for the ability to bind to the immobilized IMM20059 at 25° C. […] However, as detailed in Table 4, the observed off-rates for binding to EPN1 were dependent upon IMM20059 surface density, with the off-rate on the 500 RU surface being 2.4-times faster than the off-rate measured on the 2800 RU density surface.

[4] = biological target: T2, recombinant EPN1 (Origene, cat …); assay: SPR, IMM20059 captured at 450 RU on CM5/Protein A, EPN1 in solution, 1:1 model, 25° C., 2nd test
Procedure: The strength of the interaction with recombinant EPN1 was further defined by surface plasmon resonance on a BIAcore2000 at 25° C. in standard running buffer (10 mM HEPES, 150 mM NaCl, 0.005% Tween-20, 0.2 mg/mL BSA, pH 7.4). Protein A surfaces were regenerated between binding cycles with 150 mM phosphoric acid. IMM20059, or an isotype control, were captured on CM5/Protein A sensor surface to generate binding and control surfaces; IMM20059 was captured at approximately 200 and 450 RU, the isotype control was captured to a density of approximately 600 RU. Binding of recombinant EPN1 to each of the three surfaces was tested, in triplicate, using a three-fold dilution series starting with 33.3 nM as the highest concentration. […] Double-subtracted data obtained from the binding measured against the 450 RU IMM20059 surface was fit to a 1:1 binding model.

[5] = biological target: T1, human EPN1 expressed by human cell lines; assay: flow cytometry, N87 cells (human tumor line)
[6] = biological target: T1, human EPN1 expressed by human cell lines; assay: flow cytometry, OE21 cells (human tumor line)
[7] = biological target: T1, human EPN1 expressed by human cell lines; assay: flow cytometry, HepG2 cells (human tumor line)
[8] = biological target: T1, human EPN1 expressed by human cell lines; assay: flow cytometry, SKMEL28 cells (human tumor line)
[9] = biological target: T1, human EPN1 expressed by human cell lines; assay: flow cytometry, OVCAR3 cells (human tumor line)
[10] = biological target: T1, human EPN1 expressed by human cell lines; assay: flow cytometry, Huh7 cells (human tumor line)
[11] = biological target: T1, human EPN1 expressed by human cell lines; assay: flow cytometry, H1735 cells (human tumor line)
[12] = biological target: T1, human EPN1 expressed by human cell lines; assay: flow cytometry, TOV112D cells (human tumor line)
[13] = biological target: T1, human EPN1 expressed by human cell lines; assay: flow cytometry, FLO1 cells (human tumor line)
[14] = biological target: T1, human EPN1 expressed by human cell lines; assay: flow cytometry, DU145 cells (human tumor line)
[15] = biological target: T1, human EPN1 expressed by human cell lines; assay: flow cytometry on intact A549 cells, fluorophore-labelled anti-human secondary
Text: Binding of IMM20059 to intact cells was detected with fluorophore-labelled anti-human secondary antibodies.
Full-length IgG1 antibody, containing the PR045-2H11 Ab VH and VL domains, was expressed recombinantly by transient transfection into mammalian cell lines, such as Chinese Hampster Ovary (CHO) and human embryonic kidney (HEK), or derivatives of those cell lines, using standard conditions. The recombinant antibody, referred to as IMM20059, was purified from conditioned media by affinity chromatography, buffer exchanged into PBS and analyzed for activity by flow cytometry. […] IMM20059 binds, to varying degrees, to the surfaces of cells included in a panel of human cancer cells, immortalized normal human cell lines, and mouse tumor lines (Table 1).

B1: IMM20059 (antibody, human IgG1, kappa, V domains shown)
VH: EVQLVESGGGLVQPGGSLRLSCAASGFTFSIHSLNWVRQAPGKGLEWVSYISSNSTTIYYADSVKGRFTISRDNAKDSLYLQMNSLRDEDTAVYYCARDYYCTGGTCFFLPDLWGRGALVTVSS
VL: EIVLTQSPATLSLSPGERATLSCRASQNISNFLAWYQHKPGQAPRLLIYDASIRATGIPARFSGSGSGTDFSLTISSLEPEDFAVYFCQQRYNWLTFGGGTKVEIKR
[1]
  MFI (fold mean fluorescence index above isotype control): 16 fold
[2]
  MFI (fold mean fluorescence index above isotype control): 3 fold
[3]
  Kd: 0.827 nM
  koff: 0.000243 s⁻¹
  kon: 293000 M⁻¹ s⁻¹
[4]
  Kd: 0.94 nM
  koff: 0.000736 s⁻¹
  kon: 787000 M⁻¹ s⁻¹
[5]
  MFI (fold mean fluorescence index above isotype control): 4 fold
[6]
  MFI (fold mean fluorescence index above isotype control): 46 fold
[7]
  MFI (fold mean fluorescence index above isotype control): 39 fold
[8]
  MFI (fold mean fluorescence index above isotype control): 15 fold
[9]
  MFI (fold mean fluorescence index above isotype control): 16 fold
[10]
  MFI (fold mean fluorescence index above isotype control): 26 fold
[11]
  MFI (fold mean fluorescence index above isotype control): 21 fold
[12]
  MFI (fold mean fluorescence index above isotype control): 7 fold
[13]
  MFI (fold mean fluorescence index above isotype control): 6 fold
[14]
  MFI (fold mean fluorescence index above isotype control): 4 fold
[15]
  EC50: 0.86 µg/mL
